Reference: PubChem BioAssay AID2599 (Sanford-Burnham Center for Chemical Genomics, 2010)
Only a part is listed here, and it is no random draw. Calls of active or inactive are those of the source.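 The calls were made as follows: active = inhibition above about 50% at the single tested dose (limit read from the data); inactive = the rest.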

The chains behind the UniProt entries cited, without tags or fusion partners. Where a name states a change or a piece, a line headed by the entry shows the natural chain unless it says otherwise.
UniProt Q9GZR1: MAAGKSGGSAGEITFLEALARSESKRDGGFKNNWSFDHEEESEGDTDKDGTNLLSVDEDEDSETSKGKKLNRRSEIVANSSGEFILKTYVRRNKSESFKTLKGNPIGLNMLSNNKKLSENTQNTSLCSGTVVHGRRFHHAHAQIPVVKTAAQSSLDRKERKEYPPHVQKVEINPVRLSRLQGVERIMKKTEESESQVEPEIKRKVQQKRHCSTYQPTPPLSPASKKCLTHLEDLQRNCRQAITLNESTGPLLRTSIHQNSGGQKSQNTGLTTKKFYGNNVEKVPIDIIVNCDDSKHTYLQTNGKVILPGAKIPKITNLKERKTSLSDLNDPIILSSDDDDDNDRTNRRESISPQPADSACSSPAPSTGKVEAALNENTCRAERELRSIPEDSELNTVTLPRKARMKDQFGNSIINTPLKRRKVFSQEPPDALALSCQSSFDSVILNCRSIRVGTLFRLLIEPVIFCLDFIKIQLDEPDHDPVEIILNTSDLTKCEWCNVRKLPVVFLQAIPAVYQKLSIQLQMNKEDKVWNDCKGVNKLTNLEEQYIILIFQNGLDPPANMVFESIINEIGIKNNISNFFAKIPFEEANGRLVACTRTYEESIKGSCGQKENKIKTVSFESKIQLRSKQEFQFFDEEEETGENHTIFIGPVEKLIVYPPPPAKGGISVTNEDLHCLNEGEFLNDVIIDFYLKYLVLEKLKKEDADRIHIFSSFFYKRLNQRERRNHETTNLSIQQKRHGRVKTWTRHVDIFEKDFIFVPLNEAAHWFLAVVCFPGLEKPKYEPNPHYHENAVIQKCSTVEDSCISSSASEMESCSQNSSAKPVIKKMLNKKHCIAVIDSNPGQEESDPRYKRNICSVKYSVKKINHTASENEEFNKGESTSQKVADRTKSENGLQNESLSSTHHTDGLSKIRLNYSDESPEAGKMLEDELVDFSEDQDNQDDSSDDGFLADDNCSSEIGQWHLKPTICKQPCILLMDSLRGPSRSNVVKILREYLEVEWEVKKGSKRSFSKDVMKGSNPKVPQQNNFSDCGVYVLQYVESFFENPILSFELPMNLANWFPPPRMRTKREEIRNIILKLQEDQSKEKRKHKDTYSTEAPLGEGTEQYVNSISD

The molecules below were run against Sentrin-specific protease 6 (Homo sapiens) (UniProt Q9GZR1) (assay: SENP6 protease inhibitors, primary screen, biochemical, luminescence, uHTS (AID 2599;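 also: plate controls were DMSO wells with enzyme for no effect and DMSO wells lacking enzyme for full effect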)). Settings: Recombinant SENP6 catalytic domain, aminoluciferin luminescence; at 10 µM; active compounds read high.

| SMILES | inhibition |
| --- | --- |
| CCOC(=O)Nc1ccc([As](=O)(O)O)c(O)c1 | inactive: -2.45% |
| Cc1cc(SC(NC(=O)c2ccccc2)C(Cl)(Cl)Cl)nc(C(C)C)n1 (stereo unspecified) | inactive: 6.46% |
| CCCCOc1ccc(C(=O)NCC2(N3CCCCC3)CCCCC2)cc1OC | inactive: -11.6% |
| CCOC(=O)Nc1cccc([As](=O)(O)O)c1 | inactive: 9.23% |
| O=P(Nc1ccccn1)(c1cccc2ccccc12)c1cccc2ccccc12 | inactive: -31.4% |
| Cc1cc(SC(NC=O)C(Cl)(Cl)Cl)ncn1 (stereo unspecified) | inactive: -13.1% |
| COP1(=S)c2c(C)nn(CCC#N)c2N=C(c2ccc(F)cc2)N1C (stereo unspecified) | inactive: -1.56% |
| O=C(Nc1ccncc1[N+](=O)[O-])c1ccc([N+](=O)[O-])cc1[N+](=O)[O-] | inactive: 3.18% |
| O=C(COc1ccccc1)OC1CN2CCC1CC2 (stereo unspecified) | inactive: -5.1% |
| CCOC(=O)c1ccc(NC(=O)C(C)(CCl)SC)cc1 (stereo unspecified) | inactive: -0.11% |
| O=C(OC1CN2CCC1CC2)c1cccc([N+](=O)[O-])c1 (stereo unspecified) | inactive: 2.86% |
| CCC(C)N(CC(C)C)C(=S)SC(NC(C)=O)C(Cl)(Cl)Cl (stereo unspecified) | inactive: -3.94% |
| Cc1cc(=O)[nH]c(N[N+](=O)[O-])n1 | inactive: -2.95% |
| O=C(OC1CN2CCC1CC2)C12CC3CC(CC(C3)C1)C2 (stereo unspecified) | inactive: -15.7% |
| Cc1c2c(nc3ccccc13)SC(C(Cl)Cl)C2 (stereo unspecified) | inactive: -23.4% |
| COc1cc(I)ccc1[As](=O)(O)O | inactive: -19.6% |
| COc1ccc2nc(NP(=O)(c3ccccc3)c3ccccc3)sc2c1 | inactive: 0.449% |
| COc1ccc(N/C(=N/P(=O)(N2CCOCC2)N2CCOCC2)N2CCOCC2)cc1 | inactive: 5.19% |
| COc1cc(C(=O)NCC2(N3CCOCC3)CCCCC2)ccc1OCC(C)C | inactive: -8.9% |
| C[As](=O)(O)c1cccc(C(=O)O)c1 | inactive: -0.235% |
| O=[As](O)(c1ccc(O)cc1)c1ccccc1O | inactive: -10.2% |
| Cc1ccc2nc3c(c(C)c2c1)CC(C(Cl)Cl)S3 (stereo unspecified) | inactive: -20.3% |
| CC(C)c1ccc(OP(=O)(Nc2ccccn2)Oc2ccccc2F)cc1 (stereo unspecified) | inactive: -7.89% |
| ClCCSc1nnc(-c2cccnc2)o1 | inactive: 7.09% |
| O=[N+]([O-])c1cc([N+](=O)[O-])c(-c2ccn[nH]2)s1 | inactive: 15.6% |
| CC(C)NC(=O)NP(=O)(Oc1ccccc1)Oc1ccccc1 | inactive: 6.61% |

| SMILES | inhibition |
| --- | --- |
| CCN(CC)C(=S)SC(NC=O)C(Cl)(Cl)Cl (stereo unspecified) | inactive: 4.72% |
| O=C(OC1CN2CCC1CC2)c1cccc2[nH]cnc12 (stereo unspecified) | inactive: 9.04% |
| CS(=O)(=O)c1cc([N+](=O)[O-])c2no[n+]([O-])c2c1 | inactive: 0.988% |
| O=P(Nc1nccs1)(Oc1ccccc1)Oc1ccccc1 | inactive: -13.3% |
| O=P(Nc1nccs1)(c1ccccc1)c1nc2ccccc2s1 (stereo unspecified) | inactive: -16.7% |
| CCOP1(=S)c2c(C)nn(CCC#N)c2N=C(c2ccccc2F)N1C (stereo unspecified) | inactive: -0.498% |
| Nc1ccccc1[As](=O)(O)c1ccccc1 | inactive: -3.74% |
| O=C(O)COc1ccc([As](=O)(O)O)cc1[N+](=O)[O-] | inactive: 0.3% |
| NC(=O)Nc1ccc([As](=O)(O)O)cc1 | inactive: -2.25% |
| CN(C(=O)Cc1ccc(Cl)c(Cl)c1)[C@H]1CC[C@@]2(CCCO2)C[C@@H]1N1CCCC1 | inactive: -0.335% |
| O=[N+]([O-])c1ccc2c(c1)nnn2O | inactive: 11.5% |
| CN(C)C(=O)c1cc([N+](=O)[O-])cc2c1-c1c(cc([N+](=O)[O-])cc1[N+](=O)[O-])C2=O | inactive: 13.8% |
| CCOP1(=S)c2c(C)nn(CCC#N)c2N=C(c2ccc(F)cc2)N1C (stereo unspecified) | inactive: -15% |
| CN(C(=O)Cc1ccccc1)[C@@H]1CC[C@]2(CCCO2)C[C@H]1N1CCCC1 | inactive: 3.56% |
| N#CCCN(C(=O)COC(=O)C(O)(c1ccccc1)c1ccccc1)c1ccc(F)cc1 | inactive: -16.7% |
| CS(=O)(=O)c1ccc(Cl)c(NC(=O)COC(=O)C(O)(c2ccccc2)c2ccccc2)c1 | inactive: 2.1% |
| O=[As](O)(O)c1cccnc1 | inactive: -16.4% |
| COc1cc(C(=O)NCC2(N3CCOCC3)CCCCC2)cc(Cl)c1OC(C)C | inactive: -10.5% |
| O=C(OC1CN2CCC1CC2)c1ccc(Cl)cc1 (stereo unspecified) | inactive: -11.1% |
| Cc1cccc(OCC(=O)OC2CN3CCC2CC3)c1 (stereo unspecified) | inactive: -0.822% |
| O=[As](O)(c1cccc(O)c1)c1cccc(O)c1 | inactive: -11.3% |
| CCCOP(=S)(Nc1nc(N)cc(=O)[nH]1)OCCC | inactive: -11.8% |
| Cc1ccc(NCCc2c([N+](=O)[O-])cc([N+](=O)[O-])cc2[N+](=O)[O-])cc1 | inactive: 13.5% |
| CCOP(=O)(Nc1cccc2ccccc12)OCC | inactive: 13.2% |
| COc1cc(C2NCCC3(OCCO3)C2(C)C)cc(OC)c1OC (stereo unspecified) | inactive: -5.25% |
| CCOP(=O)(Nc1ccc(C)cn1)OCC | inactive: -7.13% |

| SMILES | inhibition |
| --- | --- |
| CN(CCCl)Cc1cc(Cl)c(NC2=NCCN2)c(Cl)c1 | inactive: -14.1% |
| CCOP(=O)(NC(=NC(C)c1ccccc1)NC(C)c1ccccc1)OCC (stereo unspecified) | inactive: 18.9% |
| O=P1(Nc2ccccn2)COc2ccccc2OC1 | inactive: -13.9% |
| CCC1=CC2Cc3nc4ccc(Cl)cc4c(N)c3C(C1)C2 (stereo unspecified) | inactive: 14.4% |
| CC(C)(C)C(=O)NC(Sc1ncccn1)C(Cl)(Cl)Cl (stereo unspecified) | inactive: -38.5% |
| Clc1n[nH]nc1-c1nn[nH][15n]1 | inactive: -17.9% |
| COc1ccccc1CNC(=O)COC(=O)C(O)(c1ccccc1)c1ccccc1 | inactive: -1.11% |
| CC1(CBr)Cn2c(nc3ccccc3c2=O)S1 (stereo unspecified) | inactive: -2.64% |
| O=[As](O)(c1ccccc1Br)c1ccccc1Br | inactive: -2.87% |
| CC(C)/C=N\N=C(\N)N[N+](=O)[O-] | inactive: -13.7% |
| CN(C(=O)Cc1ccc(Cl)c(Cl)c1)[C@@H]1CCCC[C@H]1N1CCCC1 | inactive: -18% |
| CC1CCC(C(C)C)C(OP(=O)(Nc2ccccn2)c2ccccc2)C1 (stereo unspecified) | inactive: 13% |
| Cc1ccc(C(=O)OC2CN3CCC2CC3)cc1 (stereo unspecified) | inactive: -0.733% |
| Cc1nn(-c2ccccc2)c2c1P(=O)(N1CCOCC1)N(C)C(c1ccccc1)=N2 (stereo unspecified) | inactive: 5.48% |
| O=C(/C=C/c1ccccc1)OC1CN2CCC1CC2 (stereo unspecified) | inactive: -5.74% |
| CN(C)C1(CNC(=O)c2ccc(S(C)(=O)=O)cc2)CCCCC1 | inactive: -2.48% |
| O=P1(Nc2ncccn2)COc2ccccc2OC1 | inactive: 4.06% |
| Cc1ccc(OCC(=O)OC2CN3CCC2CC3)cc1 (stereo unspecified) | inactive: -18.4% |
| O=[As](O)(c1cccs1)c1cccs1 | inactive: -3.46% |
| O=P1(Nc2ccc(Br)cn2)COc2ccccc2OC1 | inactive: -13.9% |
| NS(=O)(=O)c1cccc(NC(=O)COC(=O)C(O)(c2ccccc2)c2ccccc2)c1 | inactive: 3.92% |
| Nc1cccc([As](=O)(O)c2ccccc2)c1 | inactive: -10.2% |
| O=P(Nc1ccccn1)(c1ccc(Br)cc1)c1ccc(Br)cc1 | inactive: 2.94% |
| CN(C)C1(CNC(=O)c2ccc(Cl)c(S(N)(=O)=O)c2)CCCCC1 | inactive: 11.2% |
| C[C@H]1OP(=O)(Oc2ccccc2)[C@H](O)[C@H](O)[C@H]1N=[N+]=[N-] (stereo partly specified) | inactive: -18.1% |
| O=P(Nc1nc2ccccc2s1)(c1ccccc1)c1ccccc1 | inactive: -5.03% |

| SMILES | inhibition |
| --- | --- |
| O=[N+]([O-])c1ncn(CCn2cnc([N+](=O)[O-])n2)n1 | inactive: 0.988% |
| O=[As](O)(c1ccccc1)c1ccc(O)cc1 | inactive: -25.6% |
| C(Cc1nn[nH]n1)Cc1nn[nH]n1 | inactive: 5.42% |
| Nc1ccc([As](=O)(O)c2ccc([N+](=O)[O-])cc2)cc1 | inactive: -22.1% |
| O=C(OC1CN2CCC1CC2)c1cccc(Cl)c1 (stereo unspecified) | inactive: -2.24% |
| CC(C)C(=O)NC(Sc1ccccc1)C(Cl)(Cl)Cl (stereo unspecified) | inactive: -31.8% |
| O=P(Nc1nccs1)(c1ccccc1)c1ccccc1 | inactive: 5.21% |
| c1nnnn1CCn1cnnn1 | inactive: -9.98% |
| CCOc1ccc(C2=NCC(CBr)S2)cc1 (stereo unspecified) | inactive: -21.6% |
| O=P1(Nc2nc3ccc(Cl)cc3s2)COc2ccccc2O1 (stereo unspecified) | inactive: 1.41% |
| CC(C)(C)C(=O)NC(Sc1ccccc1)C(Cl)(Cl)Cl (stereo unspecified) | inactive: 10.6% |
| CC(=O)c1ccc(N2CC2c2ccncc2)cc1 (stereo unspecified) | inactive: 20.8% |
| C[C@H]1OP(=O)(Oc2ccccc2)C[C@@H]2O[C@@H]21 (stereo partly specified) | inactive: -9.84% |
| C[C@@H]1C=CCP(=O)(Oc2ccccc2)O1 (stereo partly specified) | inactive: 7.5% |
| Cc1ccccc1CN(C)C(=O)COC(=O)C(O)(c1ccccc1)c1ccccc1 | inactive: -12.5% |
| CC(=O)Nc1ccc(Oc2c([N+](=O)[O-])cc([N+](=O)[O-])cc2[N+](=O)[O-])cc1 | inactive: -15.5% |
| CC(=O)Nc1ccc([As](=O)(O)O)c(O)c1 | inactive: -4.82% |
| CCNC(=S)/N=C(\N)N[N+](=O)[O-] | inactive: -3.07% |
| O=C(NC1CCS(=O)(=O)C1)NP(=S)(Oc1ccccc1)Oc1ccccc1 (stereo unspecified) | inactive: 2.5% |
| Cc1ccc(NP(=O)(Oc2cccc(C)c2)Oc2cccc(C)c2)nc1 | inactive: -1.52% |
| CCOC(=O)NC(Sc1ccccc1)C(Cl)(Cl)Cl (stereo unspecified) | inactive: 11.4% |
| c1ccc(-c2nn[nH]n2)c(-c2nn[nH]n2)c1 | inactive: -14.9% |
| CC(=O)NC(SC(=S)N(CC(C)C)CC(C)C)C(Cl)(Cl)Cl (stereo unspecified) | inactive: -8.45% |
